Experimental data taken from patent US20230081426A1, “COMPOUNDS AND METHODS FOR KRAS MODULATION AND INDICATIONS THEREFOR” (Plexxikon Inc., priority 2020, published 2023).

The chains behind the UniProt entries cited, without tags or fusion partners. Residues count along the entry.
UniProt P01116, 1-188 isoform 2 G12C: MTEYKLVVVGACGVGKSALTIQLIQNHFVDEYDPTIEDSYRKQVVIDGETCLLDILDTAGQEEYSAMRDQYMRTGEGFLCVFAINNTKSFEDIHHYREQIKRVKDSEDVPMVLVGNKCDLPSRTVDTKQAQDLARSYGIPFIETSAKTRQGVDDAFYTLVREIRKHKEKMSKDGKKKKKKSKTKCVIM
UniProt P01116, 1-188 isoform 2 G12D: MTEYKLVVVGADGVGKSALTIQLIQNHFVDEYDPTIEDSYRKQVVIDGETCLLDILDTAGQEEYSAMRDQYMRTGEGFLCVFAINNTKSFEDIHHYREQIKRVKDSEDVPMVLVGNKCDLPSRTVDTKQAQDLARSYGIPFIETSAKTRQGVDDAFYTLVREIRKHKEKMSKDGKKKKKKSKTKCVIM

Assays:
[1] = biological target: G12C-mutant human KRAS (amino acid residues 1-188) (Homo sapiens, UniProt P01116, G12C); assay: KRAS Binding Disruption Assay (AlphaScreen; biotinylated KRpep-2d analogue or RAF1-RBD), G12C; details: read-out: KRAS GMean IC50 (uM) MUTATION: G12C, geometric mean
[2] = biological target: G12D-mutant human KRAS (amino acid residues 1-188) (Homo sapiens, UniProt P01116, G12D); assay: KRAS Binding Disruption Assay (AlphaScreen; biotinylated KRpep-2d analogue or RAF1-RBD), G12D; details: read-out: KRAS GMean IC50 (uM) MUTATION: G12D, geometric mean

| SMILES | IC50 [1] [µM] | IC50 [2] [µM] |
| --- | --- | --- |
| Fc1cc2c(N3CC4CCC(C3)N4)nc(OCC34CCCN3CCC4)nc2c(F)c1-c1c[nH]c2cccc(Cl)c12 | 0.0001 to 10 | 0.0001 to 10 |
| Fc1c(-c2c[nH]c3cccc(Cl)c23)ccc2c(N3CC4CCC(C3)N4)nc(OCC34CCCN3CCC4)nc12 | 0.0001 to 10 | 0.0001 to 10 |
